Drawing on the kinase profiling compilation of Christmann-Franck et al. (2016), this text covers residual activity for two compounds.

Amino acid sequences for entries named in this document (tags omitted). A change or cut given only in a name is not applied to a line headed by its entry.
UniProt Q8IYT8: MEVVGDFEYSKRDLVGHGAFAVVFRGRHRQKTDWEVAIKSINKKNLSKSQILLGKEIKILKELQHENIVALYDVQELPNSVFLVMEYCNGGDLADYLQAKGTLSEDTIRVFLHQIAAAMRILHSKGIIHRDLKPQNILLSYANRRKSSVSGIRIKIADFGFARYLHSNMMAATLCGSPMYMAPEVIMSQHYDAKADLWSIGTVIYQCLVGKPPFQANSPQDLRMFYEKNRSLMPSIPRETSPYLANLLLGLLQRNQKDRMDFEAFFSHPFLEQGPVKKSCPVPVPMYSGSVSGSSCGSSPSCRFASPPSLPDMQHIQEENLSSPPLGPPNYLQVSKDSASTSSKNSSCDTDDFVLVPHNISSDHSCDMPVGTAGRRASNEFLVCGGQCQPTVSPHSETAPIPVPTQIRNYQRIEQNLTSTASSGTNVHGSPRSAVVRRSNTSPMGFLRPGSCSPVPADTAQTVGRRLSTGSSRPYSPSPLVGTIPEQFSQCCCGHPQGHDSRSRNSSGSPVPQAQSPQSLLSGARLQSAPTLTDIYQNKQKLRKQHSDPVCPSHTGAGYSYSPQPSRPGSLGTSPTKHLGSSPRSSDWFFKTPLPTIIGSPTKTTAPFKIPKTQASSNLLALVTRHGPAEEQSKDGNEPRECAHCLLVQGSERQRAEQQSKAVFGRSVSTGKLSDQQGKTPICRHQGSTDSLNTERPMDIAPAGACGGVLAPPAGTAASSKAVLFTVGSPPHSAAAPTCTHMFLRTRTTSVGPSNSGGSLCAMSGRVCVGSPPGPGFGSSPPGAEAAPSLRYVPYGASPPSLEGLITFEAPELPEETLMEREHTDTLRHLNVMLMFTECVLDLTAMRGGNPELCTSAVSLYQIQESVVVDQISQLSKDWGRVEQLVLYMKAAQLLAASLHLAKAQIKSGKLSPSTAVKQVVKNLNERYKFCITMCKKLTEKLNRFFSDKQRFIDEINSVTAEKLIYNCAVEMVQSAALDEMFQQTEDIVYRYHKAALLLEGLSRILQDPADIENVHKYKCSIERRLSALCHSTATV
UniProt Q9UIK4: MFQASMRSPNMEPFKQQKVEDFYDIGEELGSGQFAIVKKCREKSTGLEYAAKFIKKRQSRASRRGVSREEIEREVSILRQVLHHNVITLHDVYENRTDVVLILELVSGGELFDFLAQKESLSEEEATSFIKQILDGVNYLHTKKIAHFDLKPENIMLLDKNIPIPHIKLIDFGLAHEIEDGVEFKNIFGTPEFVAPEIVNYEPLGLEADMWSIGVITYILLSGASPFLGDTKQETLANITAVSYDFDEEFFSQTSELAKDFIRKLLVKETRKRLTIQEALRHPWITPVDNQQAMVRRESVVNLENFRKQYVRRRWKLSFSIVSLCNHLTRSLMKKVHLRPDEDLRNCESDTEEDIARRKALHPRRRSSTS

Test [1] addresses ULK2 (human) (UniProt Q8IYT8). Kind of test: radiometric filter-binding kinase assay, Kinase HotSpot. The note with it: compound 0.5 µM; ATP 10 µM.
The target of test [2] is DAPK2 (human) (UniProt Q9UIK4). Described as above. The note with it: compound 0.5 µM; ATP 10 µM.

One may read the residual activity as the signal under treatment as a percentage of the control signal. In the case of `O=c1[nH]c2ccccc2n1C1CCN(Cc2ccc(-c3nc4cc5[nH]cnc5cc4nc3-c3ccccc3)cc2)CC1`, the residual activity in test [1] is 106%.

For `Cn1cc(/C=C2\C(=O)Nc3ccc(S(N)(=O)=O)cc32)c2ccccc21`, the residual activity in test [2] came to 94%.
